# Data as given in PubChem BioAssay AID588478 (ICCB-Longwood Screening Facility, Harvard Medical School, 2011).
# Chains of the proteins cited; added tags and fusions are not shown.
# UniProt Q9Y5K5, whole entry: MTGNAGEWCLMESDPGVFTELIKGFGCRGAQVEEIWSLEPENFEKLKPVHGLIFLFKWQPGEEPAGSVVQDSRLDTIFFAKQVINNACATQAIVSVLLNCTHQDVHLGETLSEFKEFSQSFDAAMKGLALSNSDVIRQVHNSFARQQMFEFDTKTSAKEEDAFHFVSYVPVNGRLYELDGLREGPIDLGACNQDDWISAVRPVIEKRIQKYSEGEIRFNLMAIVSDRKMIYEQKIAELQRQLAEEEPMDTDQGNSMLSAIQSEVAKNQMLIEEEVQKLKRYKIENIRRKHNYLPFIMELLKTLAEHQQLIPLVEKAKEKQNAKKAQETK
# The list shows a part of the results, in another mix than the full data. Some tests of the compounds listed are not included; inactive here does not mean inactive elsewhere. The source made the active and inactive calls.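 How the source made its calls: active means mean inhibition over replicate wells above about 20% (limit read from the data); inactive means the rest.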
# Target: Ubiquitin carboxyl-terminal hydrolase isozyme L5 (Homo sapiens) (UniProt Q9Y5K5)
# Assay: inhibitors of human UCH37 deubiquitinase, primary screen, biochemical, Ub-AMC cleavage, fluorescence (AID 588478);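 further: 0% = compound-free wells with enzyme and 100% = wells lacking proteasome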
# Conditions: purified proteasome/UCH37, Ub-AMC cleavage fluorescence; stronger effect = higher value; concentration not given here
# Outline: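 Signal – fluorescence, ex 355 nm, em 460 nm · System – Proteasome-bound UCH37 · Input – 0.15 nM proteasome as dispensed · Timing – 30 min preincubation with enzyme, 25 min cleavage at room temperature · Read-out basis – percent inhibition of cleavage signal versus uninhibited and no-proteasome wells · Medium – Tris-HCl pH 7.4 with ATP-MgCl2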
row,Compound,inhibition
1,CN(C)C1CCCC1OC(=O)C(O)(c1ccccc1)c1ccccc1 (stereo not drawn),inactive: 4.18%
2,CN(C)c1ccc(C(=O)NCC2(N(C)C)CCCCC2)cc1,inactive: -0.136%
3,Cc1ccccc1C(=O)NCC1(N2CCCCC2)CCCCC1,inactive: 0.569%
4,CN(C)CCOC(=O)C(O)(c1ccccc1)C1CCCCC1 (stereo not drawn),inactive: -0.715%
5,O=C(NCC1(N2CCCCC2)CCCCC1)c1cc(F)c(F)cc1Cl,inactive: 4.33%
6,O=C(NCC1(N2CCCCC2)CCCCC1)c1cccc(Br)c1,inactive: -0.802%
7,Cc1cc(C(=O)NCC2(N3CCCCC3)CCCCC2)ccc1[N+](=O)[O-],inactive: 5.61%
8,CCN1CCCC(OC(=O)C2(O)c3ccccc3C=Cc3ccccc32)C1 (stereo not drawn),inactive: -0.364%
9,COc1ccc(C(=O)NCC2(N(C)C)CCCCC2)cc1,inactive: 4.98%
10,O=C(NCC1(N2CCCCC2)CCCCC1)c1cc([N+](=O)[O-])ccc1Cl,inactive: 5.25%
11,CN1[C@@H]2CC[C@H]1CC(OC(=O)C(O)(c1ccccc1)c1ccccc1)C2 (stereo partly drawn),inactive: 4.7%
12,COc1cc(SC)ccc1C(=O)NCC1(N(C)C)CCCCC1,inactive: -2.02%
13,Cc1ccc(C(=O)NCC2(N3CCCCC3)CCCCC2)cc1,inactive: 0.602%
14,O=C(OC1CN2CCC1CC2)C(CO)(c1ccccc1)c1ccccc1 (stereo not drawn),inactive: 0.0143%
15,COc1ccc(Br)c(C(=O)NCC2(N3CCCCC3)CCCCC2)c1,inactive: 0.453%
16,CN(C)c1cccc(C(=O)NCC2(N(C)C)CCCCC2)c1,inactive: -6.58%
17,O=C(OCCN1CCCC1)C(O)(c1ccccc1)c1ccccc1,inactive: -1.08%
18,CC(C)Oc1ccc(C(=O)NCC2(N(C)C)CCCCC2)cc1,inactive: 0.742%
19,CN(C)C1(CNC(=O)c2ccc(Br)cc2)CCCCC1,inactive: 3.53%
20,COc1cc(C(=O)NCC2(N(C)C)CCCCC2)c([N+](=O)[O-])cc1OC,inactive: 4.4%
21,COc1ccc(Cl)cc1C(=O)NCC1(N(C)C)CCCCC1,inactive: 3.86%
22,COc1cccc(C(=O)NCC2(N3CCCCC3)CCCCC2)c1,inactive: 2.21%
23,O=C(NCC1(N2CCCCC2)CCCCC1)c1cccc(Cl)c1,inactive: 2.09%
